Reported melting point values for industrial, environmental and drug-like chemicals

From the experimental data distributed with OPERA 2.9.

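The numbers are reported measurements, compiled and curated for the OPERA QSAR suite. A listed value is a point estimate from one report or more. How each value was measured is not recorded, so precision varies. A value may pool stereoisomers or salt forms, and the file does not say which form was measured. Some upstream entries may be estimates or bounds without being marked so.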

Melting points are in °C. "via" names the databases from which the curators took the value.

{"smiles": "Cc1csc(=O)[nH]1", "MP (°C)": "99", "via": "OCHEM"}
{"smiles": "CNS(=O)(=O)c1cccc(CN)c1", "MP (°C)": "130", "via": "OCHEM"}
{"smiles": "CC1N=C(O)CN=C1O", "stereo": "configuration not stated", "MP (°C)": "247", "via": "PubChem"}
{"smiles": "CC(C)CCCC(C)CCCC(C)CCCC(C)(O)C(O)CO", "stereo": "configuration not stated", "MP (°C)": "-6", "via": "eChemPortal"}
{"smiles": "O=S(=O)([O-])c1cccc2c(S(=O)(=O)[O-])cccc12.[Na+].[Na+]", "MP (°C)": "215", "via": "eChemPortal"}
{"smiles": "COc1ccccc1N1C(=O)C=CC1=O", "MP (°C)": "90.5", "via": "OCHEM"}
{"smiles": "Cc1nc2sc3c(c2c(=O)n1N)CCCCC3", "MP (°C)": "200", "via": "OCHEM"}
{"smiles": "Cc1c(C(=O)O)[nH]c2c1C(=O)CC(C)(C)C2", "MP (°C)": "207", "via": "OCHEM"}
{"smiles": "COC(=O)c1c(N)sc(C)c1C", "MP (°C)": "125", "via": "OCHEM"}
{"smiles": "N=C(N)c1ccc(OCCCCCOc2ccc(C(=N)N)cc2)cc1.O=S(=O)(O)CCO.O=S(=O)(O)CCO", "MP (°C)": "190.5", "via": "OCHEM, PubChem"}
{"smiles": "CCCCCCCCCCCC(=O)OCC(C)C", "MP (°C)": "-14", "via": "eChemPortal"}
{"smiles": "CC(C)=CCCc1ccc2c(c1)C(=O)c1ccccc1C2=O", "MP (°C)": "90.45", "via": "eChemPortal"}
{"smiles": "CCCC(=O)NC(C)C(=O)O", "stereo": "configuration not stated", "MP (°C)": "92.3", "via": "eChemPortal"}
{"smiles": "CC1(C2CCC3C4=CC=C5CC6(CCC5(C)C4CCC32C)OCCO6)OCCO1", "stereo": "configuration not stated", "MP (°C)": "187", "via": "eChemPortal"}
{"smiles": "CNC(=O)NC(=O)C(Cl)c1ccccc1", "stereo": "configuration not stated", "MP (°C)": "131", "via": "OCHEM"}
{"smiles": "FC(F)(F)C(F)(F)C(F)(F)C(F)(F)C(F)(F)C(F)(F)C(F)(F)C(F)(F)CC[n+]1ccccc1.[I-]", "MP (°C)": "197", "via": "ChemicalBook"}
{"smiles": "S=c1[nH]ncn1-c1cccc(Cl)c1", "MP (°C)": "188", "via": "OCHEM"}
{"smiles": "CC(C)(C)n1ncc(C#N)c1N", "MP (°C)": "91", "via": "OCHEM"}
{"smiles": "CC(CC(=O)NCCO)CC(C)(C)C", "stereo": "configuration not stated", "MP (°C)": "-43", "via": "eChemPortal"}
{"smiles": "O=C(O)[C@@H]1C2CCC(CC2)[C@H]1Nc1nc(Cl)ncc1F", "MP (°C)": "217", "via": "eChemPortal"}
{"smiles": "OCCC(CCO)c1ccc(N=Nc2ccccc2)cc1", "MP (°C)": "134", "via": "OCHEM"}
{"smiles": "O=C(CCl)Nc1ccc2c(c1)C(=O)c1ccccc1C2=O", "MP (°C)": "299", "via": "OCHEM"}
{"smiles": "O=c1c2cccc3cccc(c32)c2nc3cccc4cccc(c43)n12", "MP (°C)": "257", "via": "eChemPortal"}
{"smiles": "CC(Sc1ccc(Cl)cc1)C(=O)O", "stereo": "configuration not stated", "MP (°C)": "107", "via": "OCHEM"}
{"smiles": "O=C(O)Cn1ccc(O)nc1=O", "MP (°C)": "280", "via": "OCHEM"}

A selection of 4 entries from above:

{"smiles": "O=C(O)Cn1ccc(O)nc1=O", "MP (°C)": "280", "via": "OCHEM"}
{"smiles": "Cc1c(C(=O)O)[nH]c2c1C(=O)CC(C)(C)C2", "MP (°C)": "207", "via": "OCHEM"}
{"smiles": "Cc1csc(=O)[nH]1", "MP (°C)": "99", "via": "OCHEM"}
{"smiles": "CCCC(=O)NC(C)C(=O)O", "stereo": "configuration not stated", "MP (°C)": "92.3", "via": "eChemPortal"}